Reference: patent US11186582B2, “Substituted [1,2,4]triazolo[1,5-a]pyrimidin-7-yl compounds as PDE2 inhibitors” (DART NEUROSCIENCE (CAYMAN) LTD., priority 2014, dated 2021)

Sequences of proteins named here, by UniProt entry; tags and fusion partners are left off. Residues count along the entry.
UniProt O00408, 2-941: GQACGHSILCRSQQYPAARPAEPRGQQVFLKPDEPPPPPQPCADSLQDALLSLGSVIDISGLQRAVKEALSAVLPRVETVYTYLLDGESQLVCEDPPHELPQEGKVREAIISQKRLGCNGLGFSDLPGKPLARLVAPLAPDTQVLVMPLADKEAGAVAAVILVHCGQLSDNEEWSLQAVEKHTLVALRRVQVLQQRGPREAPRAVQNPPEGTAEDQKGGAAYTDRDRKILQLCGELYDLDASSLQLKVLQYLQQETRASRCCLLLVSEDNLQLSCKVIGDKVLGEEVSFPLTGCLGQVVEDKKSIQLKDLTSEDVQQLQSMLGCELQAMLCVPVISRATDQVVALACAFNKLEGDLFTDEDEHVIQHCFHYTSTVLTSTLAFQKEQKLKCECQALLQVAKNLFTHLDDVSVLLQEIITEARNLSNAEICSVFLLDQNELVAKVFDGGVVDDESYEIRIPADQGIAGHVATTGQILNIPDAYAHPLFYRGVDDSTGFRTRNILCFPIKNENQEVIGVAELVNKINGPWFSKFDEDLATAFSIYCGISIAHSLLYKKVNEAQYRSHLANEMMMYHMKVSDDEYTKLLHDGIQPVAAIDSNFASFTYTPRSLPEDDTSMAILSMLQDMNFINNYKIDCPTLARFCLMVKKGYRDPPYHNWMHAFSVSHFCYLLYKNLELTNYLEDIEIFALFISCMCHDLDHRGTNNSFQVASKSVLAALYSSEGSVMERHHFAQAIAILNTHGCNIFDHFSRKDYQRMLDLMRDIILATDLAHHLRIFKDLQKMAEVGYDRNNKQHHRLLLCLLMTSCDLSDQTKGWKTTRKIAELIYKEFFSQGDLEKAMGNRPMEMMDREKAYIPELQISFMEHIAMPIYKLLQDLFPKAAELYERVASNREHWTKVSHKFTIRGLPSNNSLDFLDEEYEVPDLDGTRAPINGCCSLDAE

biological target: FLAG-tagged PDE2A1 (amino acids 2-941) (Homo sapiens (Human), UniProt O00408); test: IMAP TR-FRET PDE2A phosphodiesterase enzymatic assay; settings: not given

| SMILES | IC50 [nM] |
| --- | --- |
| Cc1cc(C2CCCN(Cc3cc(-c4ccncc4)ccc3F)C2)n2ncnc2n1 (centres unmarked) [Example 27, 4-{4-Fluoro-3-[(3-{5-methyl-[1,2,4]triazolo[1,5-a]pyrimidin-7-yl}piperidin-1-yl)methyl]phenyl}pyridine] | 1000 to 10000 |
| Cc1cc([C@H]2CCCN(Cc3cc(F)c(F)c(F)c3)C2)n2ncnc2n1 [Example 191, (3S)-3-{5-Methyl-[1,2,4]triazolo[1,5-a]pyrimidin-7-yl}-1-[(3,4,5-trifluorophenyl)methyl]piperidine] | 100 to 1000 |
| Cc1cc(C2CCCN(C(=O)c3c4ccccc4nn3C)C2)n2ncnc2n1 (centres unmarked) [Example 477, 2-Methyl-3-[(3-{5-methyl-[1,2,4]triazolo[1,5-a]pyrimidin-7-yl}piperidin-1-yl)carbonyl]-2H-indazole] | > 10000 |
| Cc1cc([C@H]2CN(C(=O)c3ccc(Br)c(Cl)c3)CCO2)n2ncnc2n1 [Example 328, (2R)-4-(4-Bromo-3-chlorobenzoyl)-2-{5-methyl-[1,2,4]triazolo[1,5-a]pyrimidin-7-yl}morpholine] | 100 to 1000 |
| Cc1cc(C2CCCN(Cc3ccc(-n4cccn4)cc3)C2)n2ncnc2n1 (centres unmarked) [Example 148, 3-{5-Methyl-[1,2,4]triazolo[1,5-a]pyrimidin-7-yl}-1-{[4-(1H-pyrazol-1-yl)phenyl]methyl}piperidine] | 100 to 1000 |
| Cc1cc(C2CN(C(=O)c3ccc(C(F)F)cc3)CC(F)(F)C2)n2ncnc2n1 (centres unmarked) [Example 512, 1-[4-(Difluoromethyl)benzoyl]-3,3-difluoro-5-{5-methyl-[1,2,4]triazolo[1,5-a]pyrimidin-7-yl}piperidine] | 100 to 1000 |
| Cc1cc(C2CCCN(Cc3ccc(Cl)c(Cl)c3)C2)n2ncnc2n1 (centres unmarked) [Example 166, 1-[(3,4-Dichlorophenyl)methyl]-3-{5-methyl-[1,2,4]triazolo[1,5-a]pyrimidin-7-yl}piperidine] | 100 to 1000 |
| Cc1cc(C2CCCN(Cc3ccc(F)c(F)c3)C2)n2ncnc2n1 (centres unmarked) [Example 91, 1-[(3,4-Difluorophenyl)methyl]-3-{5-methyl-[1,2,4]triazolo[1,5-a]pyrimidin-7-yl}piperidine] | 100 to 1000 |
| Cc1cc(C2CN(C(=O)c3ccn(-c4ccccc4F)n3)CCO2)n2ncnc2n1 (centres unmarked) [Example 380, 4-[1-(2-Fluorophenyl)-1H-pyrazole-3-carbonyl]-2-{5-methyl-[1,2,4]triazolo[1,5-a]pyrimidin-7-yl}morpholine] | 100 to 1000 |
| COc1cc(C(F)(F)F)ccc1CN1CCCC(c2cc(C)nc3ncnn23)C1 (centres unmarked) [Example 158, 1-{[2-Methoxy-4-(trifluoromethyl)phenyl]methyl}-3-{5-methyl-[1,2,4]triazolo[1,5-a]pyrimidin-7-yl}piperidine] | 1000 to 10000 |
| Cc1cc(C2CCCN(Cc3ccc(-c4cccs4)cc3)C2)n2ncnc2n1 (centres unmarked) [Example 160, 3-{5-Methyl-[1,2,4]triazolo[1,5-a]pyrimidin-7-yl}-1-{[4-(thiophen-2-yl)phenyl]methyl}piperidine] | 100 to 1000 |
| Cc1cc(C2CCCN(Cc3cccc4ccccc34)C2)n2ncnc2n1 (centres unmarked) [Example 41, 3-{5-Methyl-[1,2,4]triazolo[1,5-a]pyrimidin-7-yl}-1-(naphthalen-1-ylmethyl)piperidine] | 100 to 1000 |
| Cc1cc(C2CCCN(Cc3ccc(C)c(F)c3F)C2)n2ncnc2n1 (centres unmarked) [Example 155, 1-[(2,3-Difluoro-4-methylphenyl)methyl]-3-{5-methyl-[1,2,4]triazolo[1,5-a]pyrimidin-7-yl}piperidine] | 100 to 1000 |
| Cc1cc(C2CN(C(=O)c3cc(C)n(-c4ccc(F)cc4)n3)CCO2)n2ncnc2n1 (centres unmarked) [Example 345, 4-[1-(4-Fluorophenyl)-5-methyl-1H-pyrazole-3-carbonyl]-2-{5-methyl-[1,2,4]triazolo[1,5-a]pyrimidin-7-yl}morpholine] | 1000 to 10000 |
| Cc1cc(C2CCCN(C(=O)c3cc(C)n(C)n3)C2)n2ncnc2n1 (centres unmarked) [Example 432, 1-[(1,5-Dimethyl-1H-pyrazol-3-yl)carbonyl]-3-{5-methyl-[1,2,4]triazolo[1,5-a]pyrimidin-7-yl}piperidine] | 1000 to 10000 |
| Cc1cc(C2CN(C(=O)c3cccc(C(F)(F)F)c3)CCO2)n2ncnc2n1 (centres unmarked) [Example 228, 2-{5-Methyl-[1,2,4]triazolo[1,5-a]pyrimidin-7-yl}-4-{[3-(trifluoromethyl)phenyl]carbonyl}morpholine] | 100 to 1000 |
| Cc1cc(C2CCCN(Cc3ccccc3C(F)(F)F)C2)n2ncnc2n1 (centres unmarked) [Example 102, 3-{5-Methyl-[1,2,4]triazolo[1,5-a]pyrimidin-7-yl}-1-{[2-(trifluoromethyl)phenyl]methyl}piperidine] | 1000 to 10000 |
| Cc1ccc(CN2CCCC(c3cc(C)nc4ncnn34)C2)cc1 (centres unmarked) [Example 76, 3-{5-Methyl-[1,2,4]triazolo[1,5-a]pyrimidin-7-yl}-1-[(4-methylphenyl)methyl]piperidine] | 100 to 1000 |
| COc1ccc(C(=O)N2CCCC(c3cc(C)nc4ncnn34)C2)c(C)c1 (centres unmarked) [Example 491, 1-[(4-Methoxy-2-methylphenyl)carbonyl]-3-{5-methyl-[1,2,4]triazolo[1,5-a]pyrimidin-7-yl}piperidine] | 100 to 1000 |
| Cc1cc(C2CCCN(Cc3c(F)cc(-c4ccccc4Cl)cc3F)C2)n2ncnc2n1 (centres unmarked) [Example 15] | 100 to 1000 |
| Cc1cc(C2CCCN(Cc3cccc(Br)c3)C2)n2ncnc2n1 (centres unmarked) [Example 11, 7-(1-(3-Bromobenzyl)piperidin-3-yl)-5-methyl-[1,2,4]triazolo[1,5-a]pyrimidine] | 1000 to 10000 |
| Cc1cc([C@@H]2CN(C(=O)c3ccc4c(c3)OC(F)(F)O4)CCO2)n2ncnc2n1 [Example 373, (2S)-4-(2,2-Difluoro-2H-1,3-benzodioxole-5-carbonyl)-2-{5-methyl-[1,2,4]triazolo[1,5-a]pyrimidin-7-yl}morpholine] | 100 to 1000 |
| Cc1cc(C2CN(C(=O)c3ccc4nccn4c3)CCO2)n2ncnc2n1 (centres unmarked) [Example 538, 4-{Imidazo[1,2-a]pyridine-6-carbonyl}-2-{5-methyl-[1,2,4]triazolo[1,5-a]pyrimidin-7-yl}morpholine] | 100 to 1000 |
| Cc1cc(C2CCCN(Cc3cc(Cl)ccc3Cl)C2)n2ncnc2n1 (centres unmarked) [Example 60, 1-[(2,5-Dichlorophenyl)methyl]-3-{5-methyl-[1,2,4]triazolo[1,5-a]pyrimidin-7-yl}piperidine] | 100 to 1000 |
| Cc1cc(C2CCCN(Cc3ccc(-c4ccc(Cl)cc4)cc3)C2)n2ncnc2n1 (centres unmarked) [Example 16, 1-{[4-(4-Chlorophenyl)phenyl]methyl}-3-{5-methyl-[1,2,4]triazolo[1,5-a]pyrimidin-7-yl}piperidine] | 100 to 1000 |

same assay, conditions: IMAP TR-FRET, 200 nM FAM-cAMP substrate, 11-point half-log dose-response

| SMILES | PDE2 (pIC50) |
| --- | --- |
| Cc1cc(C2CN(C(=O)c3cnn(-c4ccccc4)c3)CC(F)(F)C2)n2ncnc2n1 (centres unmarked) [Example 532, 3,3-Difluoro-5-{5-methyl-[1,2,4]triazolo[1,5-a]pyrimidin-7-yl}-1-(1-phenyl-1H-pyrazole-4-carbonyl)piperidine] | >7 |
| Cc1cc(C2CN(C(=O)c3cc(F)cc(Cl)c3)CC(F)(F)C2)n2ncnc2n1 (centres unmarked) [Example 504, 1-(3-Chloro-5-fluorobenzoyl)-3,3-difluoro-5-{5-methyl-[1,2,4]triazolo[1,5-a]pyrimidin-7-yl}piperidine] | >7 |
| Cc1cc(C2CN(C(=O)c3ccc(-c4ccccc4)cc3)CC(F)(F)C2)n2ncnc2n1 (centres unmarked) [Example 505, 3,3-Difluoro-5-{5-methyl-[1,2,4]triazolo[1,5-a]pyrimidin-7-yl}-1-(4-phenylbenzoyl)piperidine] | >7 |
| Cc1cc([C@@H]2CN(C(=O)c3cc(C(F)(F)F)cc(C(F)(F)F)c3)CC(F)(F)C2)n2ncnc2n1 [Example 276, (5S)-1-[3,5-Bis(trifluoromethyl)benzoyl]-3,3-difluoro-5-{5-methyl-[1,2,4]triazolo[1,5-a]pyrimidin-7-yl}piperidine] | >7 |
| Cc1cc([C@H]2CCCN(Cc3ccc(Cl)c(F)c3)C2)n2ncnc2n1 [Example 141, (3S)-1-[(4-Chloro-3-fluorophenyl)methyl]-3-{5-methyl-[1,2,4]triazolo[1,5-a]pyrimidin-7-yl}piperidine] | >7 |
| Cc1cc(C2CN(C(=O)c3ccc4cc(F)ccc4c3)CC(F)(F)C2)n2ncnc2n1 (centres unmarked) [Example 528, 3,3-Difluoro-1-(6-fluoronaphthalene-2-carbonylyl)-5-{5-methyl-[1,2,4]triazolo[1,5-a]pyrimidin-7-yl}piperidine] | >7 |
| COc1ccc2cc(C(=O)N3CCCC(c4cc(C)nc5ncnn45)C3)ccc2c1 (centres unmarked) [Example 447, 1-[(6-Methoxynaphthalen-2-yl)carbonyl]-3-{5-methyl-[1,2,4]triazolo[1,5-a]pyrimidin-7-yl}piperidine] | >7 |
| Cc1cc(C2CCCN(Cc3cnc(-c4cccc(F)c4)s3)C2)n2ncnc2n1 (centres unmarked) [Example 196, 1-{[2-(3-Fluorophenyl)-1,3-thiazol-5-yl]methyl}-3-{5-methyl-[1,2,4]triazolo[1,5-a]pyrimidin-7-yl}piperidine] | >7 |
| Cc1cc(C2CN(C(=O)c3cn(C)c4ccccc34)CC(F)(F)C2)n2ncnc2n1 (centres unmarked) [Example 502, 3-(3,3-Difluoro-5-{5-methyl-[1,2,4]triazolo[1,5-a]pyrimidin-7-yl}piperidine-1-carbonyl)-1-methyl-1H-indole] | >7 |
| Cc1cc(C2CN(C(=O)c3csc4ccccc34)CC(F)(F)C2)n2ncnc2n1 (centres unmarked) [Example 510, 1-(1-Benzonthiophene-3-carbonyl)3,3-difluoro-5-{5-methyl-[1,2,4]triazolo[1,5-a]pyrimidin-7-yl}piperidine] | >7 |
| Cc1cc(C2CCCN(C(=O)c3cc4ccccc4cn3)C2)n2ncnc2n1 (centres unmarked) [Example 389, 3-[(3-{5-Methyl-[1,2,4]triazolo[1,5-a]pyrimidin-7-yl}piperidin-1-yl)carbonyl]isoquinoline] | >7 |
| Cc1cc(C2CCCN(Cc3ccc(Cl)c(F)c3)C2)n2ncnc2n1 (centres unmarked) [Example 83, 1-[(4-Chloro-3-fluorophenyl)methyl]-3-{5-methyl-[1,2,4]triazolo[1,5-a]pyrimidin-7-yl}piperidine] | >7 |
| Cc1cc([C@H]2CCCN(C(=O)[C@H]3COc4ccccc4C3)C2)n2ncnc2n1 [Example 336, (3S)-1-[(3R)-3,4-Dihydro-2H-1-benzopyran-3-carbonyl]-3-{5-methyl-[1,2,4]triazolo[1,5-a]pyrimidin-7-yl}piperidine] | >7 |
